Protein sequences, listed by entry. Tags and fused reporters are not part of them.
Importin subunit beta-1 (Homo sapiens), Q14974, UniProt Q14974, whole entry, looked up: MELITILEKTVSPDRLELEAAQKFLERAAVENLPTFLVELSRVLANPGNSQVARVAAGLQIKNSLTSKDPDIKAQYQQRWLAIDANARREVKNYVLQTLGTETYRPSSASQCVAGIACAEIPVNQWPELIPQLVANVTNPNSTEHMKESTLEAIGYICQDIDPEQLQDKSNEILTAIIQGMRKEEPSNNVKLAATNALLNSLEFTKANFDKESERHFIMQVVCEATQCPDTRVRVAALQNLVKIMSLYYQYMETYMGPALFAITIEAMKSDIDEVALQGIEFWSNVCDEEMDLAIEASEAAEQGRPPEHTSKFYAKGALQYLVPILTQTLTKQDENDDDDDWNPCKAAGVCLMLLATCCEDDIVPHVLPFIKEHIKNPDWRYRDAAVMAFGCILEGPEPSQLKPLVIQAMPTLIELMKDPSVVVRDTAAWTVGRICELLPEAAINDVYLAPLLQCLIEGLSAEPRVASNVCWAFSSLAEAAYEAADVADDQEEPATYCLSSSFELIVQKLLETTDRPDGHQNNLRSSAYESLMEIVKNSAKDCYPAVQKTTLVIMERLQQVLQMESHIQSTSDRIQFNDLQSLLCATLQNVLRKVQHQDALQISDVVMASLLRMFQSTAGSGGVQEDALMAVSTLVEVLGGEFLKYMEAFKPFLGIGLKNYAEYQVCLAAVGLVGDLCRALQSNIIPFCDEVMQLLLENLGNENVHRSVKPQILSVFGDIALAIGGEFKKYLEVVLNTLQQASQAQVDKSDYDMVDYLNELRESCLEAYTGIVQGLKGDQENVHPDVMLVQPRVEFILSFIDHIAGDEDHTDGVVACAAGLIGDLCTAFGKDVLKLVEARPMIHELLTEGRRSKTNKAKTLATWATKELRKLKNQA

# Screening data from PubChem BioAssay.
# In the library only some 0.43% were active in any assay of this set; here they are far more common.
# Rango release inh: qHTS Assay for Inhibitors of RanGTP induced Rango (Ran-regulated importin-beta cargo) - Importin beta complex dissociation | AID 540253, 2011 | Biochemical FRET Rango-importin beta, RanGTP-induced dissociation | Snurportin-1 (Homo sapiens) + GTP-binding nuclear protein Ran (Homo sapiens) + Importin … | Potency, µM (highest dose often 46.1 µM) | 340,000 tested, 0.071% active; calls by dose curve; further: nearly all actives have a fitted effect of over 45% in size
#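 Two FRET readings bracket the reaction: one 5 min after compound meets Rango–importin beta, another 45 min after RanGTP-RCC1 (0.6 uM Ran, 0.2 uM RCC1, 2 mM GTP) is added. Only the second defines inhibition.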
# EPAC1 antag: qHTS for Antagonist of cAMP-regulated guanine nucleotide exchange factor 3 (EPAC1): primary screen; 360,000 tested, 0.14% active; Rap guanine nucleotide exchange factor 3 (Homo sapiens), O95398; EPAC1 GEF assay, Rap1b-BODIPY-GDP exchange fluorescence; Potency, µM (top dose mostly 115 µM), actives largely listed as inhibitors; further: nearly all actives have a fitted effect of over 50% in size
# EPAC2 agonist: qHTS for Agonist of cAMP-regulated guanine nucleotide exchange factor 4 (EPAC2): primary screen; Rap guanine nucleotide exchange factor 4 (Homo sapiens), Q8WZA2; EPAC2 activation, biochemical qHTS; response scale: 100% = 6.5 mM cAMP response; Potency, µM (doses to about 154 µM), actives largely listed as activators; 360,000 tested, 0.079% active; further: nearly all actives have a fitted effect of over 50% in size
#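 Compounds were titrated in qHTS against a Rap1B-BODIPY-GDP (250 nM) complex with EPAC2 (100 nM) and GDP (50 uM). BODIPY-GDP release tracked at 480/540 nm over 30 min at room temperature, normalized to 6.5 mM cAMP.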
# EPAC1 ag: qHTS for Agonist of cAMP-regulated guanine nucleotide exchange factor 3 (EPAC1): primary screen; Potency, µM (highest dose often 154 µM), hits mostly activators; Rap guanine nucleotide exchange factor 3 (Homo sapiens), O95398; EPAC1 agonist qHTS, biochemical assay; response scale: 100% = response to 6.5 mM cAMP; 360,000 tested, 0.073% active; further: nearly all actives have a fitted effect of over 60% in size
#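 Normalized to 6.5 mM cAMP, activity reflects EPAC1-catalysed release of BODIPY-GDP from Rap1B, followed kinetically over 30 min at 480 nm excitation, 540 nm emission. Reaction contained 100 nM EPAC1, 250 nM Rap1B-BODIPY-GDP, 50 uM GDP.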
# Rango complex inh: qHTS Assay for Inhibitors of Rango (Ran-regulated importin-beta cargo) - Importin beta complex formation; Importin subunit beta-1 (Homo sapiens), Q14974; Rango CFP/YFP FRET sensor + importin beta, 45 min; Potency, µM (top dose mostly 92.2 µM); 340,000 tested, 0.031% active; calls by dose curve; further: nearly all actives have a fitted effect of over 15% in size
#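 Inhibition scored from the CFP 486 nm/YFP 530 nm FRET ratio 45 min after adding 0.125 microM importin beta to 50 nM Rango biosensor preincubated 5 min with compound (room temperature, PBS with DTT, Tween-20, BSA). No-importin wells as positive control.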
# EPAC2 antagonist: qHTS for Antagonist of cAMP-regulated guanine nucleotide exchange factor 2 (EPAC2): primary screen; EPAC2 GEF exchange of Rap1B-BODIPY-GDP, fluorescence; 360,000 tested, 0.18% active; Rap guanine nucleotide exchange factor 4 (Homo sapiens), Q8WZA2; Potency, µM (titrated, usually from 114 µM), usual class: inhibitors; further: nearly all actives have a fitted effect of over 45% in size
# A number is an active result; i = inactive; ? = inconclusive; nt = no result given. Unless noted, the call rests on the fitted dose curve; in most records, active means well fitted curve in the direction sought with a large enough effect; inconclusive means small, poorly fitted or top-dose-only effect, or another doubt; inactive means no such curve, though single readings can be large; an effect the other way counts as inactive or inconclusive.
SMILES,Rango release inh,EPAC1 antag,EPAC2 agonist,EPAC1 ag,Rango complex inh,EPAC2 antagonist
CCOc1ccc(/C=C/C(=O)c2c(O)c3ccccc3oc2=O)cc1,i,i,i,100µM,i,i
CN(C)c1ccc(/C=C/C(=O)c2c(O)c3ccccc3oc2=O)cc1,?,?,i,i,i,i
Cc1ccc(N2CCN(C(=O)C(=O)c3cccc([N+](=O)[O-])c3)CC2)cc1,nt,i,i,i,nt,i
O=Cc1ccc(-c2ccccc2C(=O)O)o1,i,i,i,i,i,i
O=C(O)c1ccccc1-c1c2cc(I)c(=O)c(I)c-2oc2c(I)c(O)c(I)cc12,i,i,100µM,28µM,i,i
COC(=O)c1ccc(NCc2cc(O)ccc2O)cc1O,i,i,i,i,18µM,i
Cc1nc2c(OCc3ccc(C(F)(F)F)cc3)cccn2c1N(C)CC1CC1,nt,i,i,i,nt,?
CCOC(=O)c1sc(=S)n(-c2ccc(OC)cc2)c1C,i,i,i,i,i,i
CCOC(=O)c1c2c(n(-c3ccc(OC)cc3)c1C)C(=O)C(=O)c1ccccc1-2,i,56µM,i,i,?,?
c1ccc(-n2nnnc2-n2ccnc2)cc1,i,i,10µM,i,i,i
CC1(C(=O)NC2CCCC2)CCC(=O)N1CCOc1ccccc1 (stereo not given),nt,i,i,i,nt,i
Cn1c(Cc2cccs2)nnc1SCc1nc2ccccc2[nH]1,i,i,10µM,i,i,i
O=C(N[C@H](Cc1ccc(Cl)cc1)C(=O)O)OCC1c2ccccc2-c2ccccc21,i,50µM,i,i,i,?
CC(=O)Nc1cc(-c2ccc(N)nc2)cn2c(-c3cccc(C(F)(F)F)c3)cnc12,nt,i,i,i,nt,i
O=C(C[C@@H]1CC[C@@H](NC(=O)Nc2cccc(F)c2)[C@@H](CO)O1)NCC1CCCCC1,nt,i,i,i,nt,i
Cc1cc(C)c(S(=O)(=O)c2ccccc2C)c(SCC(C)C)n1,?,i,i,i,i,?
CCCSc1nc(C)cc(C)c1S(=O)(=O)c1ccccc1C,i,?,i,i,i,10µM
O=C1C(=C(c2ccccc2)c2ccccc2)Nc2ccccc21,i,i,6.3µM,i,i,i
Oc1ccc(NCc2cccc(OCc3ccccc3)c2)cc1,i,32µM,i,i,i,?
Oc1ccc(NCc2cccc(OCc3ccc(F)cc3)c2)cc1,i,45µM,i,i,i,i
COc1ccc(/C=C2\OC(=S)N(C)C2=O)cc1,i,i,i,i,i,i
CN1C(=O)/C(=C\c2ccc(N(C)C)cc2)OC1=S,?,i,i,89µM,?,i
Cc1cccc(C)c1NC(=O)C1(C)CSCC(=O)N1CCc1ccccc1 (stereo not given),nt,i,i,i,nt,i
COc1cccc(/C=C2\SC(=S)NC2=O)c1OS(=O)(=O)c1ccc(NC(C)=O)cc1,i,79µM,i,i,i,i
CCc1ccc(-n2cccc2/C=C2/C(=N)N3C(=NC2=O)SN=C3S(C)(=O)=O)cc1,i,79µM,i,i,?,i
COc1cc(/C=C2/SC(=S)NC2=O)ccc1OS(=O)(=O)c1ccc(C)cc1,i,45µM,i,i,i,40µM
COc1ccc(/C=C2\SC(=S)NC2=O)cc1OS(=O)(=O)c1ccc(NC(C)=O)cc1,i,?,i,i,i,50µM
COc1cc(C=O)ccc1OS(=O)(=O)c1ccc(NC(C)=O)cc1,i,i,i,i,i,i
